How the values were obtained:
[1] = Inhibitory activity against varicella zoster virus thymidine kinase (VZV TK+) OKA strain
[2] = Inhibitory activity against varicella zoster virus thymidine kinase (VZV TK+) YS strain

Compound: Nc1ncnc2c1ncn2CCOCP(=O)(O)O [9-[2-phosphonomethoxyethyl]adenine]
- EC50 [1]: 31.1 µM
- EC50 [2]: 19.7 µM
